# Assay results published in patent publication US9725465B2, “Biaryl acetamide compounds and methods of use thereof” (Ambit Biosciences Corporation, priority 2013, dated 2017).
# Structures can show the parent of a compound that is named as a salt.
# Columns and labels:
# FLT3-ITD-D835V = FLT3-ITD-D835V (Homo sapiens (Human), UniProt P36888, D835V/INS600HVDFREYEYD); test: pFLT3 MSD assay, Ba/F3 FLT3-ITD-D835V; format: cell-based; settings: Ba/F3 FLT3-ITD-D835V cells, 2 hours, read-out: BaF3-FLT3-ITD-D835V pFlt3 IC50
# FLT3-ITD-F691L = FLT3-ITD-F691L (Homo sapiens (Human), UniProt P36888, F691L/INS600HVDFREYEYD); test: pFLT3 MSD assay, Ba/F3 FLT3-ITD-F691L; format: cell-based; settings: Ba/F3 FLT3-ITD-F691L cells, 2 hours, read-out: BaF3-FLT3-ITD-F691L pFlt3 IC50
SMILES,IC50 (FLT3-ITD-D835V) [nM],IC50 (FLT3-ITD-F691L) [nM]
"O=C(Cc1ccc(-c2cnc3[nH]ccc3n2)cc1)Nc1cc(C2(C(F)(F)F)CC2)on1 [Example 3, 2-(4-(5H-pyrrolo[2,3-b]pyrazin-2-yl)phenyl)-N-(5-(1-(trifluoromethyl)cyclopropyl)isoxazol-3-yl)acetamide]",< 10,< 10
"CC(C)(C)c1cc(NC(=O)Cc2ccc(-c3cnc4[nH]ncc4c3)cc2F)no1 [Example 32, N-(5-(tert-butyl)isoxazol-3-yl)-2-(2-fluoro-4-(1H-pyrazolo[3,4-b]pyridin-5-yl)phenyl)acetamide]",< 10,< 10
"CCOc1cc2ncc(-c3ccc(CC(=O)Nc4cc(C5(C(F)(F)F)CC5)on4)c(F)c3)cc2cc1OC [Example 86, 2-(4-(7-ethoxy-6-methoxyquinolin-3-yl)-2-fluorophenyl)-N-(5-(1-(trifluoromethyl)cyclopropyl)isoxazol-3-yl)acetamide]",< 10,< 10
"CC(C)(c1cc(NC(=O)Cc2ccc(-c3cnc4[nH]nnc4c3)cc2)no1)C(F)(F)F [Example 41, 2-(4-(3H-[1,2,3]triazolo[4,5-b]pyridin-6-yl)phenyl)-N-(5-(1,1,1-trifluoro-2-methylpropan-2-yl)isoxazol-3-yl)acetamide]",> 50,> 50
"COc1cc2nc(-c3ccc(CC(=O)Nc4cc(C5(C(F)(F)F)CC5)on4)c(F)c3)cnc2cc1OC1COC1 [Example 144, 2-[2-fluoro-4-[7-methoxy-6-(oxetan-3-yloxy)quinoxalin-2-yl]phenyl]-N-[5-[1-(trifluoro-methyl)cyclopropyl]isoxazol-3-yl]acetamide]",< 10,< 10
"COc1cc2ncc(-c3ccc(CC(=O)Nc4cc(C(C)(C)CO)on4)cc3)nc2cc1OC [Example 16, 2-(4-(6,7-dimethoxyquinoxalin-2-yl)phenyl)-N-(5-(1-hydroxy-2-methylpropan-2-yl)isoxazol-3-yl)acetamide]",> 50,> 50
"O=C(Cc1ccc(-c2cnc3cc4c(cc3n2)O[C@H](CO)CO4)cc1F)Nc1cc(C2(C(F)(F)F)CC2)on1 [Example 122, 2-[2-fluoro-4-[(3R)-3-(hydroxymethyl)-2,3-dihydro-[1,4]dioxino[2,3-g]quinoxalin-7-yl]phenyl]-N-[5-[1-(trifluoro-methyl)cyclopropyl]isoxazol-3-yl]acetamide]",< 10,< 10
"CC(C)(c1cc(NC(=O)Cc2ccc(-c3cnc4[nH]ncc4c3)cc2F)no1)C(F)(F)F [Example 34, 2-(2-fluoro-4-(1H-pyrazolo[3,4-b]pyridin-5-yl)phenyl)-N-(5-(1,1,1-trifluoro-2-methylpropan-2-yl)isoxazol-3-yl)acetamide]",< 10,< 10
"O=C(Cc1ccc(-c2cnc3[nH]c4c(c3n2)CCCC4)cc1)Nc1cc(C2(C(F)(F)F)CC2)on1 [Example 17, 2-(4-(6,7,8,9-tetrahydro-5H-pyrazino[2,3-b]indol-2-yl)phenyl)-N-(5-(1-(trifluoromethyl)cyclopropyl)isoxazol-3-yl)acetamide]",< 10,20 to 50
"COc1cc2nc(-c3ccc(CC(=O)Nc4cc(C5(C(F)(F)F)CC5)on4)c(F)c3)cnc2cc1OCc1ccccc1 [Example 163, 2-[4-(6-benzyloxy-7-methoxy-quinoxalin-2-yl)-2-fluoro-phenyl]-N-[5-[1-(trifluoromethyl)cyclo-propyl]isoxazol-3-yl]acetamide]",20 to 50,20 to 50
"COc1cc2ncc(-c3ccc(CC(=O)Nc4cc(C(C)(C)C)n[nH]4)c(F)c3)nc2cc1OC [Example 153, N-(3-tert-butyl-1H-pyrazol-5-yl)-2-[4-(6,7-dimethoxyquinoxalin-2-yl)-2-fluoro-phenyl]acetamide]",< 10,< 10
"CN(C)Cc1cc2cc(-c3ccc(CC(=O)Nc4cc(C(C)(C)C)on4)cc3)cnc2[nH]1 [Example 52, N-(5-(tert-butyl)isoxazol-3-yl)-2-(4-(2-((dimethylamino)methyl)-1H-pyrrolo[2,3-b]pyridin-5-yl)phenyl)acetamide]",> 50,20 to 50

# Further lines, results first:
IC50 (FLT3-ITD-D835V) [nM],IC50 (FLT3-ITD-F691L) [nM],SMILES
> 50,> 50,"CN(C)Cc1c[nH]c2ncc(-c3ccc(CC(=O)Nc4cc(C(C)(C)C)on4)cc3)cc12 [Example 59, N-(5-(tert-butyl)isoxazol-3-yl)-2-(4-(3-((dimethylamino)methyl)-1H-pyrrolo[2,3-b]pyridin-5-yl)phenyl)acetamide formate salt]"
< 10,< 10,"Cn1ncc2ncc(-c3ccc(CC(=O)Nc4cc(C5(C(F)(F)F)CC5)on4)cc3)cc21 [Example 21, 2-(4-(1-methyl-1H-pyrazolo[4,3-b]pyridin-6-yl)phenyl)-N-(5-(1-(trifluoromethyl)cyclopropyl)isoxazol-3-yl)acetamide]"
< 10,< 10,"COCCOc1cc2nc(-c3ccc(CC(=O)Nc4cc(C(C)(C)C)nn4C)c(F)c3)cnc2cc1OC [Example 161, N-(5-tert-butyl-2-methyl-pyrazol-3-yl)-2-[2-fluoro-4-[6-methoxy-7-(2-methoxyethoxy)quinoxalin-2-yl]phenyl]acetamide]"
< 10,< 10,"COc1cc2ncc(-c3ccc(CC(=O)Nc4cc(C5(C(F)(F)F)CC5)on4)cc3F)nc2cc1OC [Example 42, 2-(4-(6,7-dimethoxyquinoxalin-2-yl)-3-fluorophenyl)-N-(5-(1-(trifluoromethyl)cyclopropyl)isoxazol-3-yl)acetamide]"
10 to 20,< 10,"Cc1nc2cc(-c3ccc(CC(=O)Nc4cc(C5(C(F)(F)F)CC5)on4)cc3)cnc2[nH]1 [Example 20, 2-(4-(2-methyl-3H-imidazo[4,5-b]pyridin-6-yl)phenyl)-N-(5-(1-(trifluoromethyl)cyclopropyl)isoxazol-3-yl)acetamide]"
< 10,< 10,"COc1cc2nc(-c3ccc(CC(=O)Nc4cc(C(C)(C)C(F)(F)F)on4)c(F)c3)cnc2cc1O [Example 164, 2-[2-fluoro-4-(6-hydroxy-7-methoxy-quinoxalin-2-yl)phenyl]-N-[5-(2,2,2-trifluoro-1,1-dimethyl-ethyl)isoxazol-3-yl]acetamide]"
< 10,< 10,"CC(C)(C)c1cc(NC(=O)Cc2ccc(-c3cnc4[nH]nc(Cl)c4c3)cc2)no1 [Example 38, N-(5-(tert-butyl)isoxazol-3-yl)-2-(4-(3-chloro-1H-pyrazolo[3,4-b]pyridin-5-yl)phenyl)acetamide]"
< 10,< 10,"CC(C)(C)c1cc(NC(=O)Cc2ccc(-c3cnc4[nH]ccc4c3)cc2)on1 [Example 71, 2-(4-(1H-pyrrolo[2,3-b]pyridin-5-yl)phenyl)-N-(3-(tert-butyl)isoxazol-5-yl)acetamide]"
< 10,< 10,"CC(C)(C)c1cc(NC(=O)Cc2ccc(-c3cnc4[nH]ccc4c3)cc2)no1 [Example 25, 2-(4-(1H-pyrrolo[2,3-b]pyridin-5-yl)phenyl)-N-(5-(tert-butyl)isoxazol-3-yl)acetamide]"
< 10,< 10,"CC(C)(C)c1cc(NC(=O)Cc2ccc(-c3cnc4[nH]ncc4c3)cc2)no1 [Example 31, 2-(4-(1H-pyrazolo[3,4-b]pyridin-5-yl)phenyl)-N-(5-(tert-butyl)isoxazol-3-yl)acetamide]"
